From patent US20220096421A1, “Active Ingredient, Pharmaceutical Composition, and Medicinal Product for HIV and AIDS Therapy” (priority 2019, published 2022)

Assay: Clinical trial in healthy volunteers, pharmacokinetics with daily administration of capsules

## N#Cc1cc(Cl)cc(Oc2c(Br)ccc(CC(=O)Nc3ccc(S(N)(=O)=O)cc3Cl)c2F)c1 [Ia]
  accumulation in the blood after repeated drug administration: showed accumulation in the blood
Repeated administration
  concentration of the metabolite in blood cells compared with plasma: an order of magnitude higher than in the plasma
